Data from ChEMBL document CHEMBL4396893, “The chemical biology of apoptosis: Revisited after 17 years” (Eur J Med Chem, 2019).

Protein sequences, listed by entry. Tags and fused reporters are not part of them.
UniProt P10415, whole entry: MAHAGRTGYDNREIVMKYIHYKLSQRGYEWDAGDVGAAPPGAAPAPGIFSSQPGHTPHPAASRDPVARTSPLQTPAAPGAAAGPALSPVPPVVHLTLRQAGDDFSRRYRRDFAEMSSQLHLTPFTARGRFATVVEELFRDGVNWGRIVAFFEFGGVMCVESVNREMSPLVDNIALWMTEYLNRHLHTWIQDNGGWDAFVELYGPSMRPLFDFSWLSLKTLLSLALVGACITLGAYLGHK

Target: Apoptosis regulator Bcl-2 (Homo sapiens, UniProt P10415)
Assay: Inhibition of Flu-Bax peptide binding to Bcl2 (unknown origin) by time-resolved fluorescence resonance energy transfer assay

## CC1(C)CCC(c2ccc(Cl)cc2)=C(CN2CCN(c3ccc(C(=O)NS(=O)(=O)c4ccc(N[C@H](CCN5CCOCC5)CSc5ccccc5)c(S(=O)(=O)C(F)(F)F)c4)cc3)CC2)C1 [NAVITOCLAX]
  Ki: < 1 nM
